Assay results from patent US20250101129A1, “AFFINITY SUBSTANCE, COMPOUND, AND ANTIBODY AND THEIR SALTS” (Ajinomoto Co., Inc., priority 2022, published 2025).

Assays:
[1] = system: HER2-positive SKBR-3 cells; experiment: Flow cytometry binding to antigens on SKBR-3 cells; type: cell-based
[2] = system: CD3-activated human T cells containing PD-1-positive cells; experiment: Flow cytometry binding to CD3-activated human T cells; type: cell-based; details: primary antibody final concentration 20 g/mL as printed, Alexa Fluor 488 anti-human IgG secondary
Procedure: The cells used were CD3-activated human T cells containing HER2-positive SKBR-3 cells, EGFR-positive A-431 cells, and PD-1-positive cells.
200,000 cells cultured in D-MEM medium (Thermo Fisher Scientific, Inc.) supplemented with 10% FBS (Thermo Fisher Scientific, Inc.) were collected, and 20 μL of PBS containing Human TruStain FcX (Biolegend) was added, followed by blocking of Fc receptors on ice for 10 minutes. The primary antibody reaction was performed by adding the above-described antibodies as primary antibodies to a cell staining buffer (PBS containing 1% FBS) to a final concentration of 20 µg/mL, adding 20 μL of the mixtures to the cells, and incubating them for 20 minutes on ice. The cells after the primary antibody reaction were washed twice with the cell staining buffer. The second antibody reaction was performed by adding 40 μL of Goat anti-Human IgG (H+L) Cross-Adsorbed Secondary Antibody, Alexa Fluor™488 (Thermo Fisher Scientific, Inc.) diluted with the cell staining buffer to 10 µg/mL as the second antibody to the cells, and incubating the cells on ice for 20 minutes. The cells were washed twice with the cell staining buffer, and then subjected to analysis using Attune NxT Flow Cytometer (Thermo Fisher Scientific, Inc.).

cetuximab
binding to SKBR-3 cells (in words) [1]: only bound to A-431 cells | cells in which fluorescence was observed (positive rate), CD3-activated human T cells [2]: Little or no fluorescence
